Our source for the unfolding free energy values is FireProtDB (doi:10.1093/protein/gzw014).

The conditions of the data set: Homo sapiens; pH 6.5; 21.5 °C; Urea; Fluorescence; Potassium phosphate 50 mM; KCl 100 mM; transition: 2; reversible: yes; whole UniProt chain shown.

B1: Peptidyl-prolyl cis-trans isomerase FKBP1B wild type, P68106 (protein)
chain: MGVEIETISPGDGRTFPKKGQTCVVHYTGMLQNGKKFDSSRDRNKPFKFRIGKQEVIKGFEEGAAQMSLGQRAKLTCTPDVAYGATGHPGVIPPNATLIFDVELLNLE
Take B1: the unfolding free energy turned out to be 5.07 kcal/mol.
